# Results from PubChem BioAssay AID651654 (Broad Institute, 2012).
# The entries are a selection whose mix differs from that of the whole data set. Active and inactive are the calls of the source.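 The calls were made as follows: active = mean lysis activity across replicates of at least 80%, whatever share of replicates individually reach that level; inactive = mean lysis activity below 80%.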
# Test: Cryptococcus neoformans cell lysis inducers, primary screen, AK release luminescence, single concentration (AID 651654)
# Conditions: C. neoformans lysis, adenylate kinase release luminescence, 4 h; at 15 µM; hits give high values; normalised: neutral wells 0, clomiphene wells 100
# Method in brief: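 Schedule: static 4 h at 37 °C with compound, 1 h detection; system: C. neoformans cells; benchmarks: Clomiphene as positive control; buffer or medium: fresh YPD medium; measure: luminescence rise reflecting yeast cell lysis; measured by: luminescent adenylate kinase detection reagent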
row,Compound,lysis activity
1,O=P1(Nc2ncccn2)COc2ccccc2OC1,inactive: 1.53%
2,Cc1ccc(S(=O)(=O)N(CCCN)CCCc2c(C)nc(N)[nH]c2=O)cc1,inactive: -1.6%
3,O=P1(Nc2ccc(Br)cn2)COc2ccccc2OC1,inactive: -9.55%
4,NS(=O)(=O)c1cccc(NC(=O)COC(=O)C(O)(c2ccccc2)c2ccccc2)c1,inactive: 0.517%
5,Cc1ccc(OCC(=O)OC2CN3CCC2CC3)cc1 (centres undefined),inactive: -4.95%
6,O=[As](O)(c1cccs1)c1cccs1,inactive: 0.151%
7,Nc1cccc([As](=O)(O)c2ccccc2)c1,inactive: 2.53%
8,CC1CCC(C(C)C)C(OP(=O)(Nc2ccccn2)c2ccccc2)C1 (centres undefined),inactive: 4.36%
9,Cc1ccc(C(=O)OC2CN3CCC2CC3)cc1 (centres undefined),inactive: 13.2%
10,Cc1nn(-c2ccccc2)c2c1P(=O)(N1CCOCC1)N(C)C(c1ccccc1)=N2 (centres undefined),inactive: -1.73%
11,CC(C)/C=N\N=C(\N)N[N+](=O)[O-],inactive: -0.628%
12,CN(C(=O)Cc1ccc(Cl)c(Cl)c1)[C@@H]1CCCC[C@H]1N1CCCC1,inactive: 1.33%
13,CN(CCCl)Cc1cc(Cl)c(NC2=NCCN2)c(Cl)c1,inactive: -1.63%
14,CCOP(=O)(NC(=NC(C)c1ccccc1)NC(C)c1ccccc1)OCC (centres undefined),inactive: 2.13%
15,O=P1(Nc2ccccn2)COc2ccccc2OC1,inactive: 3.06%
16,CCC1=CC2Cc3nc4ccc(Cl)cc4c(N)c3C(C1)C2 (centres undefined),inactive: 5.15%
17,CC(C)(C)C(=O)NC(Sc1ncccn1)C(Cl)(Cl)Cl (centres undefined),inactive: -1.31%
18,O=P1(N(CCCl)CCCl)NCCC(C(F)(F)F)O1 (centres undefined),inactive: -0.399%
19,Clc1n[nH]nc1-c1nn[nH][15n]1,inactive: -0.527%
20,CCCOP(=S)(Nc1nc(N)cc(=O)[nH]1)OCCC,inactive: -3.84%
21,Cc1ccc(NCCc2c([N+](=O)[O-])cc([N+](=O)[O-])cc2[N+](=O)[O-])cc1,inactive: 0.609%
22,Nc1cccc2c([As](=O)(O)O)cccc12,inactive: -0.901%
23,CS(=O)(=O)c1ccc(Cl)c(NC(=O)COC(=O)C(O)(c2ccccc2)c2ccccc2)c1,inactive: 3.23%
24,O=[As](O)(O)c1cccnc1,inactive: 6.29%
25,O=C(OC1CN2CCC1CC2)c1ccc(Cl)cc1 (centres undefined),inactive: 1.02%

row,Compound,lysis activity
1,O=[As](O)(c1cccc(O)c1)c1cccc(O)c1,inactive: 0.51%
2,Cc1cccc(OCC(=O)OC2CN3CCC2CC3)c1 (centres undefined),inactive: 1.54%
3,NC(=O)Nc1ccc([As](=O)(O)O)cc1,inactive: -0.714%
4,CN(C(=O)Cc1ccc(Cl)c(Cl)c1)[C@H]1CC[C@@]2(CCCO2)C[C@@H]1N1CCCC1,inactive: -0.393%
5,CN(C)C(=O)c1cc([N+](=O)[O-])cc2c1-c1c(cc([N+](=O)[O-])cc1[N+](=O)[O-])C2=O,inactive: -6.41%
6,O=[N+]([O-])c1ccc2c(c1)nnn2O,inactive: -0.497%
7,CCOP1(=S)c2c(C)nn(CCC#N)c2N=C(c2ccc(F)cc2)N1C (centres undefined),inactive: 0.339%
8,CN(C(=O)Cc1ccccc1)[C@@H]1CC[C@]2(CCCO2)C[C@H]1N1CCCC1,inactive: -0.446%
9,N#CCCN(C(=O)COC(=O)C(O)(c1ccccc1)c1ccccc1)c1ccc(F)cc1,inactive: 0.227%
10,O=P(Nc1nccs1)(c1ccccc1)c1nc2ccccc2s1 (centres undefined),inactive: -0.226%
11,CCOP1(=S)c2c(C)nn(CCC#N)c2N=C(c2ccccc2F)N1C (centres undefined),inactive: 2.68%
12,Nc1ccccc1[As](=O)(O)c1ccccc1,inactive: -0.0235%
13,O=C(O)COc1ccc([As](=O)(O)O)cc1[N+](=O)[O-],inactive: 0.37%
14,CC(C)c1ccc(OP(=O)(Nc2ccccn2)Oc2ccccc2F)cc1 (centres undefined),inactive: 0.363%
15,ClCCSc1nnc(-c2cccnc2)o1,inactive: -0.081%
16,CCN(CC)C(=S)SC(NC=O)C(Cl)(Cl)Cl (centres undefined),inactive: 6.44%
17,O=C(OC1CN2CCC1CC2)c1cccc2[nH]cnc12 (centres undefined),inactive: -2.39%
18,O=[N+]([O-])c1ccc(-c2cc([N+](=O)[O-])c(O)c([N+](=O)[O-])c2)cc1,inactive: 15.9%
19,C[As](=O)(O)c1cccc(C(=O)O)c1,inactive: 13.1%
20,O=[As](O)(c1ccc(O)cc1)c1ccccc1O,inactive: 7.85%
21,Cc1ccc(OP(=O)(Nc2ccc([N+](=O)[O-])cn2)Oc2ccc(C)cc2)cc1,inactive: 0.84%
22,COc1ccc(N/C(=N/P(=O)(N2CCOCC2)N2CCOCC2)N2CCOCC2)cc1,inactive: 4.7%
23,Cc1cc(=O)[nH]c(N[N+](=O)[O-])n1,inactive: 3.11%
24,O=C(OC1CN2CCC1CC2)C12CC3CC(CC(C3)C1)C2 (centres undefined),inactive: -2.23%
25,COc1cc(I)ccc1[As](=O)(O)O,inactive: 2.05%

row,Compound,lysis activity
1,COc1ccc(CN2/C(=N\P(=O)(Oc3ccccc3)Oc3ccccc3)Cc3ccccc3C2C2CC2)cc1 (centres undefined),inactive: -5.23%
2,O=P1(N(CCCl)CCCl)Nc2ccccc2N1,inactive: -2.41%
3,CCOC(=O)c1ccc(NC(=O)C(C)(CCl)SC)cc1 (centres undefined),inactive: -2.06%
4,CSc1ccc(Nc2c([N+](=O)[O-])cc([N+](=O)[O-])cc2[N+](=O)[O-])cc1,inactive: -0.814%
5,O=C(OC1CN2CCC1CC2)c1cccc([N+](=O)[O-])c1 (centres undefined),inactive: -1.79%
6,CCC(C)N(CC(C)C)C(=S)SC(NC(C)=O)C(Cl)(Cl)Cl (centres undefined),inactive: 6.9%
7,COP1(=S)c2c(C)nn(CCC#N)c2N=C(c2ccc(F)cc2)N1C (centres undefined),inactive: -4.2%
8,O=C(Nc1ccncc1[N+](=O)[O-])c1ccc([N+](=O)[O-])cc1[N+](=O)[O-],inactive: -1.73%
9,O=C(COc1ccccc1)OC1CN2CCC1CC2 (centres undefined),inactive: -3.41%
10,O=C(O)C(=O)c1ccc(N(CCCl)CCCl)cc1,inactive: 0.122%
11,CCOC(=O)Nc1cccc([As](=O)(O)O)c1,inactive: 0.641%
12,O=[N+]([O-])c1ccc(Nc2ccc(Oc3ccc([N+](=O)[O-])cc3[N+](=O)[O-])cc2)c([N+](=O)[O-])c1,inactive: 0.228%
13,CC1CCNP(=O)(N(CCCl)CCCl)O1 (centres undefined),inactive: -0.486%
14,CCOC(=O)Nc1ccc([As](=O)(O)O)c(O)c1,inactive: -4.27%
15,O=C(O)C(O)c1ccc(N(CCCl)CCCl)cc1 (centres undefined),inactive: -2.76%
16,CCCCOc1ccc(C(=O)NCC2(N3CCCCC3)CCCCC2)cc1OC,inactive: -2.48%
17,COP(=O)(OC)N1CC1c1ccccc1 (centres undefined),inactive: -0.165%
18,O=[N+]([O-])c1cccc(NC2=NCC(CBr)S2)c1 (centres undefined),inactive: -2.48%
19,O=C(O)CNc1ccc([As](=O)(O)O)cc1,inactive: 0.936%
20,O=P1(N(CCCl)CCCl)OCCCS1 (centres undefined),inactive: 2.4%
21,O=C(Nc1cc([As](=O)(O)O)ccc1O)c1ccccc1,inactive: 8.88%
22,C[N+]1=C2C=CC=CC=C2SC12C([N+](=O)[O-])=CC([N+](=O)[O-])=C[C-]2[N+](=O)[O-] (centres undefined),inactive: -2.18%
23,Nc1ccc([As](=O)(O)c2ccc(N)cc2)cc1,inactive: 1.41%
24,CC(C)c1nc(Nc2ccccc2)n(P(=O)(N(C)C)N(C)C)n1,inactive: 0.403%
25,c1cc(-c2nn[nH]n2)ccc1-c1nn[nH]n1,inactive: 0.009%

row,Compound,lysis activity
1,CC1CCN(C(=O)Oc2c(Cl)cc(Cl)c3cccnc23)CC1,inactive: -0.695%
2,COc1ccc(C2=NCC(CBr)S2)cc1 (centres undefined),inactive: 1.9%
3,O=[N+]([O-])c1cccc2n[nH]nc12,inactive: 1.35%
4,CC(=O)N1C2C3N(C(C)=O)C1C1N(C(C)=O)C(C(N1C(C)=O)N3C(C)=O)N2C(C)=O,inactive: -17.6%
5,CCc1nc2c(n1)c1c(non1O)c1c2no[n+]1[O-],inactive: 1.84%
6,CC(C)CC(=O)NC(Sc1ccc(Cl)cc1)C(Cl)(Cl)Cl (centres undefined),inactive: 0.073%
7,O=C(NC(Sc1ccncn1)C(Cl)(Cl)Cl)c1ccccc1 (centres undefined),inactive: -2.07%
8,Oc1ccccc1CNc1ccccn1,inactive: -0.373%
9,Cc1ccc(N/C(=N/P(=O)(N2CCOCC2)N2CCOCC2)N2CCOCC2)cc1,inactive: 4.14%
10,CN(C(=O)Cc1ccc(Cl)c(Cl)c1)[C@H]1CCCC[C@H]1N1CCCC1,inactive: 1.19%
11,Cc1ccc(OP(=O)(Nc2nccs2)Oc2ccc(C)cc2)cc1,inactive: 1.83%
12,Clc1ccc(Cl)c(NC2=NCC(CBr)S2)c1 (centres undefined),inactive: 2.69%
13,CN1CCCC(OC(=O)C(c2ccccc2)c2ccccc2)C1 (centres undefined),inactive: -0.226%
14,Nc1cccc2ccc([As](=O)(O)O)cc12,inactive: -1.11%
15,CCCC1OP(N)(=O)OCC1CC (centres undefined),inactive: 6.85%
16,O=C(O)c1ccccc1[As](=O)(O)O,inactive: 3.21%
17,CC(=O)Nc1ccc([As](=O)(O)O)cc1,inactive: 2.49%
18,CN(C)P(=O)(N(C)C)n1c(Nc2ccccc2)nnc1-c1ccccc1,inactive: 1.75%
19,CN(C(=O)Cc1ccc(Cl)c(Cl)c1)[C@H]1CCCC[C@@H]1N1CCCC1,inactive: 0.131%
20,CCOP(=O)(Nc1ccccc1)OCC,inactive: -0.637%
21,CC(=O)NC(SC(=S)N(CC(C)C)CC(C)C)C(Cl)(Cl)Cl (centres undefined),inactive: -2.03%
22,COC(=O)c1cc2c(s1)N=C(c1ccccc1)N(C)P2(=O)N1CCOCC1 (centres undefined),inactive: -1.12%
23,CCC(=O)N1C2C3N(C(=O)CC)C1C1N(C(=O)CC)C(C(N1C(=O)CC)N3C(=O)CC)N2C(=O)CC,inactive: 3.47%
24,O=C(OC1CN2CCC1CC2)c1ccccc1 (centres undefined),inactive: 6.01%
